Organism: Homo sapiens
Assay: Selectivity ratio of Ki for STAT3 SH2 domain (unknown origin) to Ki for STAT1 (unknown origin)

Ratio Ki: 2
Compound: CN(CC(=O)N(Cc1ccc(C2CCCCC2)cc1)c1ccc(C(=O)O)c(F)c1)S(=O)(=O)c1c(F)c(F)c(F)c(F)c1F
